AlphaSeq binding of Ab-95 light chain variants to a spike HR2 peptide

Antigen: PDVDLGDISGINAS, a 14-residue peptide of the SARS-CoV-2 spike HR2 region.

Parent: Ab-95, a human scFv built as VH, a 15-residue (Gly4Ser)3 linker, VL. Only the CDRs of the light chain vary.
VH: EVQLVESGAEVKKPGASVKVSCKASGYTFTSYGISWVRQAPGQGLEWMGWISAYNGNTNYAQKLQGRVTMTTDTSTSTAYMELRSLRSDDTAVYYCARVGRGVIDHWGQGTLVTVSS
VL: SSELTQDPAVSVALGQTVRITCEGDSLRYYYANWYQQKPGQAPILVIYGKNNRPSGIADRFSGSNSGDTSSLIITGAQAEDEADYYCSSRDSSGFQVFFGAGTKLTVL

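The starting antibody came from a phage panning campaign against this peptide. AAYL52 was designed without a model: most single CDR substitutions and a random sample of double and triple ones. The scFvs were displayed on barcoded MATa yeast, the peptide on MATalpha yeast. The frequency of each diploid, read from paired DNA barcodes, reflects how well the two displayed proteins bind. Each replicate has its own calibration line, from reference interactions of the BCL2 family. Each pool was mated in three replicate cultures.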

The parent's light chain CDRs are EGDSLRYYYAN, GKNNRPS, SSRDSSGFQVF; each variant's own CDRs replace them letter for letter.
Every variant below is changed at S93 of the VL (sequential numbering).
Values are apparent Kd, the geometric mean of the replicates that gave a signal; lower means stronger binding.
"no signal" marks a missing value. The strain was present, yet no cells mated with the target were sequenced in any replicate, which points to weak or no binding.
As a blank, each scFv also met three strains without target: over library AAYL52, 28% of these pairings were detected, typically at 8.2 µM and seldom below 800 nM. The control count says in how many pairings with the empty strains this scFv gave a signal.

For EGDSLRYYYAN / WKPNRPS / SSRDSHGFQVF, the assay gave 190 µM (2 of 3 replicates; controls 1 of 9). With NGDSLRYYGAN / GKNNRPS / SSRDSRGFQVF the result was 100 nM (3 of 3 replicates; controls 4 of 9). For EGDSLRYYYAN / GKNNRPS / SSRDSGGFQVF, the assay gave 1.9 µM (3 of 3 replicates; controls 1 of 9). For EGDSLRYYYAI / GPNNRPS / SSRDSTGFQVF, the assay gave 5.4 µM (1 of 3 replicates; controls 2 of 9). For EGDSLRYYYAN / GKNNRPS / SSRDSKGFQVF, the assay gave 2.4 µM (3 of 3 replicates; controls 1 of 9). Variant EGDSLHYYYAN / GKNNRPS / RSRDSHGFQVF gave no signal (0 of 3 replicates; controls 3 of 9). Variant EGDSLYYYYAN / GKNNRES / SSRDSIGFQVF showed 2.0 µM (2 of 3 replicates; controls 2 of 9).

Variant EGDSLRYYRAN / GKNNRPS / SMRDSAGFQVF gave 16 µM (2 of 3 replicates; controls 3 of 9). For EGDSLRYYYAI / GKNNRPY / SSRDSMGFQVF, the assay gave no signal (0 of 3 replicates; controls 1 of 9). With EGDSQRYYYAN / GKNNRPS / SSRDSYKFQVF the result was 21 µM (2 of 3 replicates; controls 1 of 9). For LGDSLRYNYAN / GKNNRPS / SSRDSDGFQVF, the assay gave 29 nM (3 of 3 replicates; controls 2 of 9). For EGDSLRYYYSN / AKNNRPS / SSRDSAGFQVF, the assay gave 12 µM (2 of 3 replicates; controls 5 of 9). For EGDSLRYYYAA / GKNDRPS / SSRDSEGFQVF, the assay gave 4.1 µM (3 of 3 replicates; controls 4 of 9). With EGDSLRYMYAN / GKNNRPS / SSRDSFGPQVF the result was 6.0 µM (2 of 3 replicates; controls 2 of 9).

Variant EGDSLRYYYAN / GKNPTPS / SSRDSEGFQVF showed 880 µM (1 of 3 replicates; controls 3 of 9). Variant EGDSLRYYYYN / GKNNRPS / SSRDSEGFQVH gave 52 µM (1 of 3 replicates; controls 0 of 9). Variant EGDSLRYYYAN / GKNNRPS / SSRDFDGDQVF showed 1.8 µM (3 of 3 replicates; controls 1 of 9). With EGDSLRYYNAN / PKNNRPS / SSRDSGGFQVF the result was 78 µM (3 of 3 replicates; controls 0 of 9). With EGDSLRYCYAN / GKNNRNS / SSRDSQGFQVF the result was 3.5 µM (2 of 3 replicates; controls 3 of 9). With EGDSLRYYDAN / GKNNEPS / SSRDSMGFQVF the result was 33 µM (1 of 3 replicates; controls 1 of 9). Variant EGDSLRYYYAN / GKNPRPS / WSRDSVGFQVF showed 2.1 µM (1 of 3 replicates; controls 4 of 9).

For EGDSLRYYYIN / GKNNHPS / SSRDSAGFQVF, the assay gave 170 µM (1 of 3 replicates; controls 2 of 9). With EGDSLRYYYAN / GKNNRDS / SSIDSQGFQVF the result was 1.0 µM (3 of 3 replicates; controls 3 of 9). Variant EGDWLRYSYAN / GKNNRPS / SSRDSTGFQVF gave 9.7 nM (3 of 3 replicates; controls 5 of 9). Variant EGDSLRYYYIN / GKNNRPS / SKRDSAGFQVF showed 8.3 µM (2 of 3 replicates; controls 3 of 9). For EGDSLRYYLAN / GKNNRPS / SSMDSTGFQVF, the assay gave 3.5 µM (3 of 3 replicates; controls 0 of 9). Variant EGDRLRYYYAN / GKNNRPS / SSRDSLGFQVP showed 19 µM (2 of 3 replicates; controls 1 of 9). For EGDSLRYYYAN / GKNNSPS / SSRDSHGFQSF, the assay gave 790 nM (1 of 3 replicates; controls 0 of 9).

With EGDMLRYYYAN / GKNNRPS / WSRDSEGFQVF the result was 3.6 µM (3 of 3 replicates; controls 0 of 9). Variant EGDSLMYYYAN / GKNNTPS / SSRDSTGFQVF showed 710 nM (2 of 3 replicates; controls 2 of 9). Variant EGDSLRYYPAN / GKNNRPS / SSRDGPGFQVF gave 36 nM (3 of 3 replicates; controls 2 of 9). With EGDSLRYSYAN / GKNNRPS / SSRDSFGFQVF the result was 310 nM (3 of 3 replicates; controls 6 of 9). Variant EGDSLRYYYAN / GKNNRPS / SSCDSVGFQVG gave 24 µM (2 of 3 replicates; controls 3 of 9). With EGDSLRFYYAN / GENNRPS / SSRDSWGFQVF the result was 480 nM (3 of 3 replicates; controls 2 of 9). Variant EGDSLRYYYAN / GKNNRPS / SSRDSQGYQVR showed 2.2 µM (3 of 3 replicates; controls 1 of 9).

From the list, the first 2 with no signal in any replicate:

CDR-L1,CDR-L2,CDR-L3,apparent Kd,detected,signal with controls
EGDSLHYYYAN,GKNNRPS,RSRDSHGFQVF,no signal,0/3,3/9
EGDSLRYYYAI,GKNNRPY,SSRDSMGFQVF,no signal,0/3,1/9

For reference, the parent read 200 nM as the reference entry and 180 nM as a member of this library.

Source: Engelhart et al. 2022 (doi:10.1038/s41597-022-01779-4), MIT Lincoln Laboratory and A-Alpha Bio; data file from the FLAb repository.